These are literature values, as cited in patent US20260382504A1, “A PROCESS OF PREPARATION OF FAST DISPERSING FILM CONTAINING ASCORBIC ACID AND PRODUCT THEREOF” (published 2026).

Data set [1] has as its system α4β2 subunit of nicotinic acetylcholine receptors (nAChRs). The conditions noted are these: binding to α4β2 subunit.
A further data set has as its system CYP2A6. Conditions: role: substrate, liver enzyme CYP2A6.
The test system of another data set is α4β2 receptors. Conditions: leading to excessive release of dopamine into nucleus accumbens and prefrontal cortex.
The conditions of data set [2]: accumulates in the body.

Take `CN1CCCC1c1cccnc1` (stereo not shown): the Ki (in general, a dissociation constant, usually derived from enzyme kinetics or from competition with a known ligand) in data set [1] was 1 nM. Also, the “oxidized metabolite cotinine formed” value in the data set on CYP2A6 was 80%. Further, the agonist effect entry with α4β2 receptors is given as “agonist effect on α4β2 receptors”.
As for `CN1C(=O)CC[C@H]1c1cccnc1`, the “detection in plasma after nicotine intake” value in data set [2] is reported as “can be detected in plasma after several weeks of nicotine intake”.
